Source: publication PMC8692891, “Native CGRP Neuropeptide and Its Stable Analogue SAX, But Not CGRP Peptide Fragments, Inhibit Mucosal HIV-1 Transmission” (Frontiers in Immunology, 2021)

Legend:
[1] = system: STAT4 expression in MDLCs; assay: STAT4 Western blot in MDLCs; type: cell-based, human; conditions: n = 4
Method: For PBMCs, cells (2 × 10^6/sample) were activated with PHA (5 μg/ml) + IL2 (100 U/ml) for 48 h at 37°C, serum-starved overnight, and stimulated for 30 min at 37°C with either IL12 (10 ng/ml; R&D systems) or interferon alpha (IFNα, 5 × 10^4 U/ml; pbl Assay Science). For MDLCs, cells (2 × 10^6/sample) were re-suspended in complete RPMI medium without cytokines and rested overnight at 37°C. MDLCs were next treated for 24 h at 37°C with CGRP (0.1 μM), SAX (0.1 μM), CGRP1–8 (10 μM), or lipopolysaccharide (LPS, 10 μg/ml). The CGRP receptor antagonist BIBN4096 (1 μM) was added 15 min before agonists. The cells were then washed and stimulated for 30 min at 37°C with combination of IL12 + IFNα at the concentrations indicated above. […] Protein contents in cell lysates were quantified using the BCA kit (Thermo Fisher) according to the manufacturer’s instructions, and 20 μg proteins were mixed with loading buffer (100 mM Tris pH 7.2, 5% β-mercaptoethanol, 12% glycerol, 5 mM EDTA, 5% SDS, 0.01% bromophenol blue), heated for 5 min at 95°C, run over a 10% SDS-PAGE, and transferred onto nitrocellulose membranes. […] Images were acquired with the Fusion FX camera platform (Vilber Lournmat) and protein expression was quantified with ImageJ software (NIH). […]

[2] = system: normal female BALB/c mice; assay: Intravaginal CGRP in normal BALB/c mice: toxicity and immune cells; type: in vivo, mouse
Method: CGRP (10 nM, 100 nM or 1 μM) was diluted in 30 μl sterile phosphate-buffered saline (PBS), alone or in combination with 1% hydrocortisone, and applied intravaginally for 6 h in normal female BALB/c mice (10 weeks old, 25–30 g, synchronized in estrous cycle). Spleen, lymph nodes, gut, liver, kidneys, and female reproductive system were then collected, and hematoxylin and eosin stained 3 μm paraffin sections were examined for histopathological analysis. Selected slides were stained after antigen retrieval with monoclonal Abs (Bio-Rd), including rat-anti-human CD3, rat-anti-mouse B220/CD45R (clone RA3-6B2), and rat-anti-mouse F4/80 (clone CI:A31), followed by rat on rodent horseradish peroxidase (HRP)-polymer, 3,3’-diaminobenzidine (DAB) as chromogen (Biocare Medical) and counterstaining with hematoxylin. Images were acquired with the AxioCam HRc using the AxioVision System SE64 (Zeiss).
Figure 1 CGRP limits mucosal HIV-1 transmission in-vivo. (A) CGRP (1 μM) or PBS were topically applied intravaginally in normal female BALB/c mice (n = 3 animals per group). Vaginal tissue sections were examined by immunohistochemistry for the presence of CD3+ T-cells, B220+ B cells and F4/80+ macrophages. Shown are mean ± SEM cell densities expressed as cells/mm^2 (of n = 3 independent experiments) in either the vaginal epithelium or stroma. (B) Representative image of the vaginal tissue of humanized BLT mice, showing expression of human langerin (arrowheads) in the epithelium; broken line denotes the basement membrane and scale bar = 20 μm. (C) Experimental schedule for preparing humanized female BLT mice, intravaginally applying CGRP or PBS followed by vaginal challenge with high-dose HIV-1 JRCSF, and subsequent blood sampling for measurement of plasma viral loads and CD4+ T-cells counts. (D, E) Shown are mean ± SEM (n = 5 BLT mice per group) of plasma viral loads (HIV-1 RNA copies/ml) or CD4+ T-cells percentages (fold). *p < 0.0500, **p < 0.0050, ***p < 0.0005; two-sided Student’s t-test.

MDLCs = assay: MDLC viability after CGRP treatment; type: cell-based, human; conditions: up to 10 μM for 24 h in-vitro
Method: First, as CGRP mediates vasodilator-dependent neurogenic inflammation that can result in immune cell recruitment, we topically applied CGRP onto the vagina of normal BALB/c mice for 6 h and examined potential toxicity and immune cells modulation.

[3] = Penetration of biotinylated CGRP into penile fossa navicularis tissue explants; design: species or system human; conditions: 500 nM or 5 μM added to the apical side for 3 h; histochemistry with streptavidin-HRP; n = 3 tissues
Method: Polarized penile fossa navicularis tissue explants were prepared as we previously described ([21]), and exposed for 3 h to 500 nM or 5 μM biotinylated CGRP in 100 μl RPMI 1640 added to the apical side. After incubation, tissue penetration of biotinylated CGRP was examined by histochemistry of 4 μm paraffin sections as we described ([21]), using HRP-coupled streptavidin (Vector), followed by the red 3-amino-9-ethylcarbazole (AEC) HRP substrate (Dako) and counterstaining with hematoxylin. Images were acquired with an Olympus BX63F microscope using MetaMorph (Molecular Devices) and analyzed with ImageJ software.
Figure 6 CGRP and SAX inhibit mucosal HIV-1 transmission in human mucosal tissues ex-vivo. […] Images are representative of n = 3 tissues; broken lines denote the basement membranes and scale bar = 20 μm; E, epithelium and S, stroma. (B, C) Inner foreskin tissue explants were left untreated or pre-treated with CGRP or SAX (1 μM) for 24 h at 37°C. Explants were next inoculated in a polarized manner with either non-infected or HIV-1-infected PBMCs for 4 h, and immediately digested with dispase/trypsin. In panel (B), shown are representative flow cytometry dot plots of epidermal cell suspensions triple stained for surface expression of CD3, CD8, and CD1a and examined by flow cytometry. […]

Substance: calcitonin gene-related peptide [CGRP]
- Total STAT4 expression ([1]; MDLCs treated 24 h, CGRP 0.1 μM, SAX 0.1 μM, CGRP1–8 10 μM, LPS 10 μg/ml, normalized to beta actin): significantly increased
- Phosphorylation of induced STAT4 (pSTAT4) upon cytokine stimulation ([1]; after 24 h agonist treatment, 30 min IL12 + IFNα): could be readily phosphorylated
- Inflammation ([2]; 10 nM, 100 nM or 1 μM topically on the vagina for 6 h): did not induce overt inflammation
- Signs of toxicity ([2]; 10 nM, 100 nM or 1 μM topically on the vagina for 6 h, histopathology): did not induce signs of toxicity
- Distribution and/or density of T cells, B cells and macrophages in vaginal epithelium and stroma ([2]; 1 μM intravaginally, immunohistochemistry, n = 3 animals per group): did not modify
- Cell viability of MDLCs (MDLCs): did not affect cell viability

Substance: biotinylated CGRP: biotinylated CGRP (AnaSpec)
- Mucosal tissue penetration [3]: readily penetrated the epithelium, but not the stroma
